{"source": "paper PMC10213809", "about": "(Cell Reports Medicine, 2023)", "tested_on": "RSV", "format": "cell-based, respiratory syncytial virus"}
{"substance": "IFN-β", "values": [{"measurement": "inhibition of RSV infection", "result": "efficient inhibition"}]}
